Experiment [1] has as its target T1, Transcriptional regulator Kaiso (Homo sapiens) (UniProt Q86T24).
T1 sequence (whole entry): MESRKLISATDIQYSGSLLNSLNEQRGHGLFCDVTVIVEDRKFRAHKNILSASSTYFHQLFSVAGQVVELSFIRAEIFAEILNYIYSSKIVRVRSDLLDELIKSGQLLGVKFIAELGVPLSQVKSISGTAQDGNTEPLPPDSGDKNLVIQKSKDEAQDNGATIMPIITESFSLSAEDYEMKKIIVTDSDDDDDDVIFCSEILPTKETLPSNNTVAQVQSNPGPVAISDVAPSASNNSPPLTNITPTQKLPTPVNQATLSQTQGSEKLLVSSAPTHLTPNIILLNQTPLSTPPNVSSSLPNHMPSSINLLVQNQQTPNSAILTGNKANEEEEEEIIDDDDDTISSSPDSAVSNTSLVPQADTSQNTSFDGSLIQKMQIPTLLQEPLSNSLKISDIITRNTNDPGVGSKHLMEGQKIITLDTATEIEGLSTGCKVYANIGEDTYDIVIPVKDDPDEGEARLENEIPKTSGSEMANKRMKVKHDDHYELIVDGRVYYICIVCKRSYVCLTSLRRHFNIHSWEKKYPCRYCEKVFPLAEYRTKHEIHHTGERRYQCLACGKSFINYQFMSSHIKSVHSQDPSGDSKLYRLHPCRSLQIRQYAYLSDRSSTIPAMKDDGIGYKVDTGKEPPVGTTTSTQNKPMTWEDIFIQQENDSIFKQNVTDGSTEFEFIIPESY
Conditions: OCI-Ly1.

By UniProt entry, the sequences of proteins in these tests, tags left out. Where a name states a change or a piece, a line headed by the entry shows the natural chain unless it says otherwise.
UniProt Q99640: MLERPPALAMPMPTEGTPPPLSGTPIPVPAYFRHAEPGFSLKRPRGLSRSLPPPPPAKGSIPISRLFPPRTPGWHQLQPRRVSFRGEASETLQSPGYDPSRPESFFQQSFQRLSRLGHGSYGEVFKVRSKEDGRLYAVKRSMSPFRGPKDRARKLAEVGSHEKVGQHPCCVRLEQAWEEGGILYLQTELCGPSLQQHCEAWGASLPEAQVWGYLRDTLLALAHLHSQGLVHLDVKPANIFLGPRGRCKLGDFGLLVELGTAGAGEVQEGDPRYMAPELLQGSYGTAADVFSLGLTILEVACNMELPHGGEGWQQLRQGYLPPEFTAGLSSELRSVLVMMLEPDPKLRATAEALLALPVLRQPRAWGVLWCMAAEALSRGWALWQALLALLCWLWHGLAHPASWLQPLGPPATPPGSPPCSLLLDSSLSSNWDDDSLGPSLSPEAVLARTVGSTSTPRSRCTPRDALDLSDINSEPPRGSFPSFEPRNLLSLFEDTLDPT

In experiment [2] the target is T2, Zinc finger and BTB domain-containing protein 2 (Homo sapiens) (UniProt Q8N680).
T2 sequence (whole entry): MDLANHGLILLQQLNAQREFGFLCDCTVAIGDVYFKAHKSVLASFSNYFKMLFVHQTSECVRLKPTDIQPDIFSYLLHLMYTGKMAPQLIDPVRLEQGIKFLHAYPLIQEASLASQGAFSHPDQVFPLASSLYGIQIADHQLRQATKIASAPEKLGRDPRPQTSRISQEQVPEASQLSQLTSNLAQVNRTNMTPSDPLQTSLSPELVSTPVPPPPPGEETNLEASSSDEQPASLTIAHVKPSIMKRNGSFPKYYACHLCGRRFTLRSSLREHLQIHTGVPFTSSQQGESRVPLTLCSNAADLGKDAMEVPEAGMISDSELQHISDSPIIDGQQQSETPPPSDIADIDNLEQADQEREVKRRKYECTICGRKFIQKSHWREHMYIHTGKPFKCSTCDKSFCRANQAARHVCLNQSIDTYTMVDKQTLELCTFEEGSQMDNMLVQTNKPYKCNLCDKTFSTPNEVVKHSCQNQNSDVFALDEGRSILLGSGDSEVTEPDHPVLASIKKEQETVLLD
Conditions: SUD4.

In experiment [3] the target is Membrane-associated tyrosine- and threonine-specific cdc2-inhibitory kinase (Homo sapiens) (UniProt Q99640). Conditions: Compound concentration 20.0 uM.
In experiment [4] the target is T3, Zinc finger and BTB domain-containing protein 44 (Homo sapiens) (UniProt Q8NCP5).
T3 sequence (whole entry): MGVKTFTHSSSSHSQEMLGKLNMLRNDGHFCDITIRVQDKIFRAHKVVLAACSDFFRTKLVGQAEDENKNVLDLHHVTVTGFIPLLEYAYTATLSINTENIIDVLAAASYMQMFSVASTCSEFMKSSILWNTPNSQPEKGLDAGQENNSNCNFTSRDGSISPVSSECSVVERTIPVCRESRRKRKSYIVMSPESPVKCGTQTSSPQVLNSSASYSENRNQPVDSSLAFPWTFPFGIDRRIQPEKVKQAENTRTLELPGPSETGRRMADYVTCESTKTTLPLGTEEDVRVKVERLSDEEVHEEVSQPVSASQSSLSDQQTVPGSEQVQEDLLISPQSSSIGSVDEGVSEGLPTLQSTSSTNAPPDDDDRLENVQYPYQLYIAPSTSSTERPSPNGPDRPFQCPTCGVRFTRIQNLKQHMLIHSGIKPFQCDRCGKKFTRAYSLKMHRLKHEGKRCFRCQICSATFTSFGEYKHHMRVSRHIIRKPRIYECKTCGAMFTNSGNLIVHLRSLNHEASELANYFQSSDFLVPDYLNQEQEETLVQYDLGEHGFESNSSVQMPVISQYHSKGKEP
Conditions: OCI-Ly1.

The target in experiment [5] is T4, Transcription regulator protein BACH2 (Homo sapiens) (UniProt Q9BYV9).
T4 sequence (whole entry): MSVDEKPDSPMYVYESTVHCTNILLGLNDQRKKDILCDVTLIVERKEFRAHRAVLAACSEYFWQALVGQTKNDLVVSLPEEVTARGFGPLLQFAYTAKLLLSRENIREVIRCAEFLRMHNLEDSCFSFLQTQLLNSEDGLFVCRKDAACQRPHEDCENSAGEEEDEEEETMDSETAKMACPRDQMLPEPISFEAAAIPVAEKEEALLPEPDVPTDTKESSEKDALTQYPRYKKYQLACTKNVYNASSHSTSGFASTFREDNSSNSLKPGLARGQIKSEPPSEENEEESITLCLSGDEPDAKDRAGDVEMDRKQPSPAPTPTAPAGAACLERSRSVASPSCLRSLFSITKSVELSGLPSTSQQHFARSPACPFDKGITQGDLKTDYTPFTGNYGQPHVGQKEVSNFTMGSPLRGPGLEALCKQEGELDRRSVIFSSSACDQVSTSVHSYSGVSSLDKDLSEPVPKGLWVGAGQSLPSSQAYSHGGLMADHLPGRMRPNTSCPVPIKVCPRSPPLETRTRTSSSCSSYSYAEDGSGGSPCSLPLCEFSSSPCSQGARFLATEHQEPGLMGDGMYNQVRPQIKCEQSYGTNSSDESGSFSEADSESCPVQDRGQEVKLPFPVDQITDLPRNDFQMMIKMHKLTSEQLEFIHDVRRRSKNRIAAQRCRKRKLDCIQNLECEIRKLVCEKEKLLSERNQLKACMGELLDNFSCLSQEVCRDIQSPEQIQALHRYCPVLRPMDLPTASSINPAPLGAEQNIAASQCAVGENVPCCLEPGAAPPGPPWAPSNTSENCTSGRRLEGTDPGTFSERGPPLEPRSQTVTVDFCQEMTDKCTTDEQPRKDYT
Conditions: SUD4.

For `C[C@@H]1CN(c2ncc(Cl)c(Nc3ccc4c(c3)n(CCC(C)(C)O)c(=O)n4C)n2)C[C@H](C)C1(F)F`, the Normalized abundances for DMSO in experiment [1] came out at 142; in experiment [2] it was 686; in experiment [4] it was 9.4; in experiment [5], 2170. For the same compound, the Normalized abundances for compound in experiment [1] came to 133; in experiment [2] it was 700; in experiment [4] it was 12.6; in experiment [5] it was 2040. Besides, in experiment [3], the Tm was 49 °C.

The values are drawn from ChEMBL document CHEMBL5058646 (2022).
